High-throughput results from PubChem BioAssay.
Hits are enriched below; roughly 1.3% of the tested compounds scored in any of these assays.
S100A4 inh HTS = S100A4-myosin IIA interaction inhibition | P26447 | S100A4/TAMRA-MyoIIA peptide fluorescence polarization | inhibition, % at 10.7 µM | hit rate 0.14% among 360,000 | AID 652163;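 active = mean inhibition of at least 70% across replicates, with every replicate also reaching that level; inconclusive = mean inhibition reaches 70% but some replicates fall short; inactive = mean inhibition below 70%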
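incubation = readout 5 min after mixing, signal stable up to 60 min | system = S100A4 monomer protein | buffer or medium = HEPES pH 7.2 with CaCl2, KCl, NaCl, DTT, Triton | benchmarks = neutral control DMSO, positive control TFP | also added = fluorescent myosin IIA peptide, 5 nM | compound dosing = one concentration per compound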
ARNT TACC3 PPI = disruptors of human ARNT/TACC3 interaction; inhibition, % at 9.99 µM; Q9Y6A5; hit rate 0.66% among 390,000; AID 623870; AlphaScreen His-ARNT PAS-B/GST-TACC3 binding, luminescence; TACC3 fragment carries E629A point mutation;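 active = mean inhibition of replicates at least 50% and at least half of replicates each reaching 50%; inconclusive = half or more replicates reach 50% but mean below 50%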;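 note: 0% = complete ARNT plus TACC3 wells and 100% = ARNT alone without TACC3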
ERAP1 HTS inh = inhibitors of human ERAP1 aminopeptidase; recombinant ERAP1, Leu-AMC fluorescence, 60 min; inhibition, % at 10.7 µM; hit rate 0.15% among 340,000;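 active = mean replicate inhibition of at least 30%, or all replicates individually reaching that 30% level; inactive = mean below 30% and not every replicate reaching it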;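 note: 0% = neutral control wells and 100% = L-leucinethiol positive control wells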
E-sel inducer = induces E-selectin expression in human endothelial cells; hit rate 0.37% among 260,000; P16581; HUVEC E-selectin immunofluorescence imaging; normalized: neutral wells 0, TNF-alpha wells 100; activation, % at 7.58 µM;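 active = mean E-selectin-positive cell signal at least 10% of the positive control, reached in at least 60% of replicates, without over 20% cell loss; inconclusive = no rule given, readout overlaps actives, possibly toxicity-flagged; inactive = the rest, including those meeting only one limit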
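Test system – human umbilical vein endothelial cells (HUVEC), E-selectin induction · Input – 3,000 HUVEC seeded per well · Buffer or medium – EGM-2, gelatin · Compound dosing – single-point compound dose · Detection – immunofluorescence imaging · Measure – percent E-selectin-positive cells · Controls – TNF-alpha high, DMSO low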
UUG fidelity = modulators of start codon recognition fidelity in yeast; AID 602363; hit rate 0.13% among 350,000; activity score, % at 18.7 µM; S. cerevisiae UUG-firefly luciferase reporter, luminescence/redox ratio;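 active = replicate mean at a twofold rise or more, about +100% in these data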;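 note: firefly luciferase made from a UUG start codon reports start codon fidelity; reporter light over untreated wells divided by growth signal over untreated wells; some hits fall short of that in this replicate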
MLL AF4-AF9 inh = inhibitors of human MLL-AF4/AF9 interaction; P42568; AlphaScreen, biotin-AF4 peptide binding to FLAG-AF9; inhibition, % at 10 µM; hit rate 0.47% among 350,000;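 active = every replicate reaching a set inhibition limit, whatever the replicate mean, cut at about 25% in these data; inconclusive = mean inhibition reaches that limit but some replicates miss it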;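 note: 0% = plate neutral control median and 100% = total signal loss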
An asterisk follows results filed as active; ? = inconclusive; . = no result; ! = not active in a repeat.

SMILES | S100A4 inh HTS | ARNT TACC3 PPI | ERAP1 HTS inh | E-sel inducer | UUG fidelity | MLL AF4-AF9 inh
COC(=O)[C@@H]1[C@@H](CO)[C@@H]2Cn3c(ccc(/C=C/c4ccccc4)c3=O)[C@H]1N2CC1CCCC1 | 4 | -133 | 0 | -1 | . | -45
COP(=O)(NC(=O)C(Cl)(Cl)Cl)OC | 12 | -8 | 4 | 3 | . | 27*
COP(=O)(NC(C)=O)SC (configuration not stated) | 2 | 3 | -2 | 0 | -5 | -1
CCOc1cccc(CNCCc2c(C)[nH]c3ccc(OC(F)(F)F)cc23)c1O | 10 | 16 | 2 | 0 | -7 | 40*
C[N+]1(CC2COC(c3ccco3)O2)CCCCC1 (configuration not stated) | -5 | 32 | 80* | -1 | . | -2
CC(C)(C#CC(=O)O)OOC(c1ccccc1)(c1ccccc1)c1ccccc1 | -11 | 8 | 41* | 0 | 0 | 1
Cc1ccc(NC(=O)CN2C(=O)CN=C(c3ccccc3)c3cc(Cl)ccc32)cc1 | 0 | 2 | -4 | 0 | -3 | 9
CN(C)c1ccc(NC(=O)CN2C(=O)CN=C(c3ccccc3)c3cc(Cl)ccc32)cc1 | -3 | 9 | 4 | -2 | -18 | 27*
CN(C)[C@@H]1C(=O)C(C(N)=O)=C(O)[C@@]2(O)C(=O)C3=C(O)c4c(O)cccc4[C@@](C)(O)[C@H]3[C@H](O)[C@@H]12 | -2 | 52*! | 2 | -2 | -9 | 15
Brc1ccc2[nH]cc(/C=N/N3CCCCC3)c2c1 | -17 | 8 | -1 | . | . | 26*
CN(N)N=Nc1nc2c([nH]1)c(=O)n(C)c(=O)n2C | 14 | 4 | . | 58* | . | -2
CN(C)C(=O)OCc1n(C)cc[n+]1C | . | 26 | . | . | . | .
CCN(CC)P(c1n(C)cc[n+]1C)N(CC)CC | 5 | -2 | 103* | . | -20 | -3
N#Cc1c(N2CCNCC2)nc(-c2ccco2)c2c1CCCC2 | -10 | -5 | 45* | . | 3 | 4
CCCCc1nc(N2CCNCC2)c(C#N)c2c1CSC(C)(C)C2 | . | 6 | . | . | -25 | .
COC(=O)[C@@H]1[C@@H](CO)[C@@H]2Cn3c(ccc(-c4cccc(F)c4)c3=O)[C@H]1N2C(=O)CC1CC1 | 4 | -4 | 1 | 0 | . | 0
C/C=C/c1ccc(C2[C@@H]3CN(C(=O)C4CCC4)C[C@H]2N3)cc1 (some centres not stated) | . | . | . | 0 | . | .
COC(=O)C1C(OC(=O)c2ccccc2)CC2CCC1[N+]2(C)C (configuration not stated) | -1 | . | 51* | . | . | .
CCCN1[C@@H]2Cn3c(ccc(-c4cccc(C(=O)N(C)C)c4)c3=O)[C@H]1[C@@H](C(=O)OC)[C@@H]2CO | 4 | -1 | 6 | 0 | . | 1
Cn1c(O)c(C(c2ccncc2)c2c(O)n(C)c(=S)n(C)c2=O)c(=O)n(C)c1=S | . | 47* | . | . | -20 | .
CC(C)[N+](C)(CCC(C(N)=O)(c1ccccc1)c1ccccc1)C(C)C | -2 | -5 | 96* | 1 | 0 | 0
CCCCCCC(=O)N/N=C/c1c(O)n(C2CC2)c(=S)[nH]c1=O | -3 | 30* | 0 | . | . | -5
CCCCCCC(=O)N/N=C/c1c(O)n(C(C)CC)c(=S)[nH]c1=O (configuration not stated) | -13 | 50* | . | . | -26 | 2
C=CCn1c(O)c(/C=N/NC(=O)CCCC)c(=O)[nH]c1=S | -4 | 69* | 2 | 1 | . | -2
CCC(C)n1c(O)c(C=NC(C)c2ccccc2)c(=O)[nH]c1=S (configuration not stated) | -2 | -3 | -1 | . | . | 0
CCCCCCC(=O)N/N=C/c1c(O)n(CCc2ccccc2)c(=O)[nH]c1=O | -5 | -27 | . | . | -8 | -3
COC(=O)[C@H]1[C@H](CO)[C@H]2Cn3c(cccc3=O)[C@@H]1N2Cc1nccs1 | 12 | 1 | 2 | 0 | . | -1
O=C(Cc1ccccc1)N1CCCCN2[C@H](C1)[C@H](c1ccc(C#Cc3ccccc3)cc1)[C@@H]2CO | 1 | -16 | -1 | -1 | 16 | -3
CCN1CCN(c2ccc(N)c(C)c2)CC1 | 0 | . | 1 | . | -6 | 37*
CN1CCN(c2ccc([N+](=O)[O-])c(N)c2)CC1 | . | 7 | . | . | . | .

Five structures from above, sorted by formula weight, highest first.
SMILES | S100A4 inh HTS | ARNT TACC3 PPI | ERAP1 HTS inh | E-sel inducer | UUG fidelity | MLL AF4-AF9 inh
CCCCCCC(=O)N/N=C/c1c(O)n(CCc2ccccc2)c(=O)[nH]c1=O | -5 | -27 | . | . | -8 | -3
CCCCCCC(=O)N/N=C/c1c(O)n(C2CC2)c(=S)[nH]c1=O | -3 | 30* | 0 | . | . | -5
C=CCn1c(O)c(/C=N/NC(=O)CCCC)c(=O)[nH]c1=S | -4 | 69* | 2 | 1 | . | -2
C/C=C/c1ccc(C2[C@@H]3CN(C(=O)C4CCC4)C[C@H]2N3)cc1 (some centres not stated) | . | . | . | 0 | . | .
CCN1CCN(c2ccc(N)c(C)c2)CC1 | 0 | . | 1 | . | -6 | 37*

(cont.)
SMILES | S100A4 inh HTS | ARNT TACC3 PPI | ERAP1 HTS inh | E-sel inducer | UUG fidelity | MLL AF4-AF9 inh
CCOc1cc2c(cc1OCC)-n1cccc1C(c1ccc(C)cc1C)NC2 (configuration not stated) | -4 | 10 | 0 | 0 | -7 | 26*
CCOc1cc2c(cc1OCC)-n1cccc1C(c1ccccc1F)NC2 (configuration not stated) | 0 | 17 | 1 | 0 | -8 | ?
CCOc1cc2c(cc1OCC)-n1cccc1C(c1cccc(F)c1)NC2 (configuration not stated) | 0 | 6 | 5 | . | -13 | 26*
CCOc1cc2c(cc1OCC)-n1cccc1C(c1cc(C)c(OC)cc1C)NC2 (configuration not stated) | -1 | 0 | 2 | 0 | 2 | 5
CCOc1cc2c(cc1OCC)-n1cccc1C(c1cc(OC)ccc1F)NC2 (configuration not stated) | -3 | 24 | 0 | 0 | 22 | 27*
COC(=O)[C@H]1[C@H](CO)[C@H]2Cn3c(ccc(-c4ccccc4)c3=O)[C@@H]1N2CC1CCOCC1 | 16 | -5 | 0 | 1 | . | 1
COc1ccc(C#Cc2ccc([C@H]3[C@H](CO)N4CCCCN(C(=O)Cc5cccnc5)C[C@@H]34)cc2)cc1 | 0 | 26 | 0 | -1 | 23 | -8
N#Cc1cccc(-c2ccc([C@H]3[C@H](CO)N4CCCCN(C(=O)Cc5cccnc5)C[C@@H]34)cc2)c1 | 11 | -7 | -1 | 0 | 4 | -4
COC(=O)[C@H]1[C@H](CO)[C@H]2Cn3c(ccc(-c4ccccc4F)c3=O)[C@@H]1N2C(=O)C1CC1 | -5 | -6 | 1 | 0 | . | 0
Cc1ccccc1-c1ccc([C@@H]2[C@H](CO)N3CCCCN(C(=O)Cc4ccccn4)C[C@@H]23)cc1 | 3 | 10 | -3 | 2 | -19 | 2
C[N+](C)(C)CC1CCCC(C[N+](C)(C)C)C1=O (configuration not stated) | 4 | -8 | 75* | -1 | . | 3
O=C(N/N=C/c1c(O)n(CCc2ccccc2)c(=O)[nH]c1=O)c1ccccc1O | 5 | 44 | . | 0 | . | 0
CC(CO)(CO)N=Cc1c(O)n(-c2cccc3ccccc23)c(=O)[nH]c1=O | . | -2 | . | . | -8 | .
O=C(N/N=C/c1c(O)n(CCc2ccccc2)c(=O)[nH]c1=O)c1ccncc1 | . | 74* | . | . | -36 | .
O=C(N/N=C/c1c(O)n(CCc2ccc(F)cc2)c(=O)[nH]c1=O)c1ccccc1 | 4 | . | 0 | . | -24 | -1
